Laboratory results as given in publication PMC10539329, “NLRP6 potentiates PI3K/AKT signalling by promoting autophagic degradation of p85α to drive tumorigenesis” (Nature Communications, 2023).

Molecular target: T1, recombinant NLRP6 (Homo sapiens, UniProt P59044)
T1 construct: DNA encoding full-length NLRP6 was codon optimized; His (N); MBP (N); made in house; host or cells: E. coli (DE3)
T1 sequence (P59044 1-892): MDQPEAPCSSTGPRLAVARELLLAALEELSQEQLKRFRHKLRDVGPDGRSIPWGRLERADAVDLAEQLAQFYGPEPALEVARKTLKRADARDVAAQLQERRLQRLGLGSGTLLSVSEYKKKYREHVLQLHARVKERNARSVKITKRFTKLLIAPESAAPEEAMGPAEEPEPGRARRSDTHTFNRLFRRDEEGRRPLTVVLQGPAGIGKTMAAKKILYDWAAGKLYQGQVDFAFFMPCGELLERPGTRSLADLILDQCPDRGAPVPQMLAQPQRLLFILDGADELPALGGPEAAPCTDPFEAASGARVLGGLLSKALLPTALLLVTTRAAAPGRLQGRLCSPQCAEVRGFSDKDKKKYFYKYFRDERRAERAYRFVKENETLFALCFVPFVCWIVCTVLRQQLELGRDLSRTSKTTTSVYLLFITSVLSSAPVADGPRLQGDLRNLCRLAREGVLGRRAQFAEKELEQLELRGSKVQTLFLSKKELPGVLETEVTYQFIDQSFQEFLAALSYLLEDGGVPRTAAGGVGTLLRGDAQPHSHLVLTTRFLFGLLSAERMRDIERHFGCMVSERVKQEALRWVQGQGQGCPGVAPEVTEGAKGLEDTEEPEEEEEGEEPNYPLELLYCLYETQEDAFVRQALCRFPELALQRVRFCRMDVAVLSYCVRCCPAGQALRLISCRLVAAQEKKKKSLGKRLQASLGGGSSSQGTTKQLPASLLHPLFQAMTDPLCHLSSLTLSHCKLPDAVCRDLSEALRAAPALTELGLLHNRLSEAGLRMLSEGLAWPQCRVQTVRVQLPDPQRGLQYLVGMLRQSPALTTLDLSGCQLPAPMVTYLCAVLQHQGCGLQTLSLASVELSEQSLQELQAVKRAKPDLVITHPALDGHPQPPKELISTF
Assay: Biolayer interferometry (BLI) binding of peptides to recombinant NLRP6
Conditions: 30 °C, PBS with 0.01% Tween-20
Method: DNA encoding full-length NLRP6 was codon optimized and chemically synthesized by Genewiz (Soochow, China). The DNA sequence was subcloned into NdeI-XhoI sites of a pDB-His-MBP vector (kindly given by Pro. Chenggui Han, China Agricultural University, Beijing, China). Recombinant NLRP6 protein was expressed and purified following previous reports, with slight modifications. Briefly, the protein was expressed in E. coli (DE3) at 16 °C with 0.5 mM IPTG induction overnight. Then, the protein was purified by Ni affinity and gel filtration chromatography. The p85α WT and p85α mutant sequences were chemically synthesized and subcloned into BamHI-XhoI sites of a pGEX-6P-1 plasmid by GenScript (Nanjing, China). The E. coli (DE3) transformed with the plasmids were grown in LB medium at 37 °C. The culture medium was supplemented with 0.5 mM IPTG followed by incubation at 16 °C for 16–18 h. […] The protein extinction coefficient was calculated by ProtParam, and the protein concentration was determined by the ultraviolet spectrophotometry method.
Eleven α-helical peptides were synthesized (Supplementary Data 7). […] The interaction between the peptides and NLRP6 was determined by BLI using an Octet Red 96 instrument (FortéBio, CA, USA). […] Responses (nanometre shift) were calculated using data that were double reference subtracted using reference wells and nonspecific binding of the biosensor to the analyte. […]

- binding to NLRP6 (in words): could bind with NLRP6
SMILES: CC[C@H](C)[C@H](NC(=O)[C@H](C)NC(=O)[C@H](CCC(=O)O)NC(=O)[C@@H](NC(=O)[C@H](CC(C)C)NC(=O)[C@H](CCCCN)NC(=O)[C@@H](NC(=O)[C@H](CC(C)C)NC(=O)[C@H](CC(C)C)NC(=O)[C@@H]1CCCN1C(=O)[C@@H]1CCCN1)[C@@H](C)CC)C(C)C)C(=O)N[C@@H](CCC(=O)O)C(=O)N[C@@H](CCCCN)C(=O)N[C@@H](CCCCN)C(=O)NCC(=O)O [Pep4]
